The values below come from patent US7829114B2, “Capsules containing aqueous fill compositions stabilized with derivatized cyclodextrin” (CyDex Pharmaceuticals, Inc., priority 2002, dated 2010).

The series is described as follows: Water solubility at saturation. It counts as physicochemical.

“Dimethylcyclodextrin [DMCD, reference compound]”: the “water solubility at saturation” value came out at 43 % w/w. The maximum achievable concentration entry (in water) is given as “about 42 % wt”.
